# In ChEMBL document CHEMBL1154754, “Janus kinase 2 inhibitors. Synthesis and characterization of a novel polycyclic azaindole” (J Med Chem, 2009):
# Chains of the proteins cited; added tags and fusions are not shown. Lines headed by an entry give the natural chain unless they say otherwise; changes in a name come on top.
# UniProt O60674: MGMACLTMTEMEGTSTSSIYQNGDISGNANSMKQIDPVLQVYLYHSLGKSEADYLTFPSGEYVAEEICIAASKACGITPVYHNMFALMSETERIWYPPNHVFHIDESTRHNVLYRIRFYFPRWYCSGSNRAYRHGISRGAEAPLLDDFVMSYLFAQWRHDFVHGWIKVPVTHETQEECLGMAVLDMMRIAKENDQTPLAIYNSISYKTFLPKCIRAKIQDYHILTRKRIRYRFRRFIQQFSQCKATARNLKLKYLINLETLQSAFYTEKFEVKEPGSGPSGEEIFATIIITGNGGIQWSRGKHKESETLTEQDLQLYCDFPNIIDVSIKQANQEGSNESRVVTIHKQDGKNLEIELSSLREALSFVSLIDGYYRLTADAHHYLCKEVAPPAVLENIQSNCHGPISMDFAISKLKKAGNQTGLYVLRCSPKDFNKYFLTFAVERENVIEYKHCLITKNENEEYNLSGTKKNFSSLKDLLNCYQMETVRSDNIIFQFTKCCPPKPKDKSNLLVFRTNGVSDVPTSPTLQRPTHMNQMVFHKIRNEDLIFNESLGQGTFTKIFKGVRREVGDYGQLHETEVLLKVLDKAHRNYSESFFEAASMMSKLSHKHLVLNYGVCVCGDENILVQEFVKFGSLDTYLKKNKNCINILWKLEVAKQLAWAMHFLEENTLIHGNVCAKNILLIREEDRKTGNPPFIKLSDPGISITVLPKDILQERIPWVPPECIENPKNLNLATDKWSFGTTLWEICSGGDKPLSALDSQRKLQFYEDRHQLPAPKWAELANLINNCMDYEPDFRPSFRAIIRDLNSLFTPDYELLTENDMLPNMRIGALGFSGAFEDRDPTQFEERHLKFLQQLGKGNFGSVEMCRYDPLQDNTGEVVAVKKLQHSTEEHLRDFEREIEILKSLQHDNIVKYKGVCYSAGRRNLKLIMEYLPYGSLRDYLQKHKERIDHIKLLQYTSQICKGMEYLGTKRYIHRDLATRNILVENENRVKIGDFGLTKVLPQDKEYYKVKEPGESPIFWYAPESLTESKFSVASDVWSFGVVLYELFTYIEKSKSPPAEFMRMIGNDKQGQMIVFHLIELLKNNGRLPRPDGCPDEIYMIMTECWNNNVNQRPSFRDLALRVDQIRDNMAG
# pIC50, pKi: −log10 of the molar value.
# What was measured:
# [1] = target: T1, Tyrosine-protein kinase JAK2 (Homo sapiens, UniProt O60674); assay: Inhibition of recombinant JAK2
# [2] = target: T1, Tyrosine-protein kinase JAK2; assay: Inhibition of JAK2 in human TF1 cells assessed as inhibition of GMCSF-induced STAT5 phosphorylation by flow cytometry; type: cell-based, TF-1
SMILES,pKi [1],pIC50 [2]
"O=C1Nc2ccccc2-c2ccnc3[nH]cc(c23)C1c1ccc(O)cc1 (single isomer, unassigned; atropisomer 1)",9.00,6.57
"O=C1Nc2ccccc2-c2ccnc3[nH]cc(c23)C1c1ccc(O)cc1 (single isomer, unassigned; atropisomer 2)",9.00,
